From US20250051335A1, “TAU-TUBULIN KINASE (TTBK) INHIBITOR COMPOUNDS” (CONSEJO SUPERIOR DE INVESTIGACIONES CIENTÍFICAS (CSIC), priority 2021, published 2025)

Chains of the proteins cited; added tags and fusions are not shown. Lines headed by an entry give the natural chain unless they say otherwise; changes in a name come on top. Residues count along the entry.
UniProt Q5TCY1: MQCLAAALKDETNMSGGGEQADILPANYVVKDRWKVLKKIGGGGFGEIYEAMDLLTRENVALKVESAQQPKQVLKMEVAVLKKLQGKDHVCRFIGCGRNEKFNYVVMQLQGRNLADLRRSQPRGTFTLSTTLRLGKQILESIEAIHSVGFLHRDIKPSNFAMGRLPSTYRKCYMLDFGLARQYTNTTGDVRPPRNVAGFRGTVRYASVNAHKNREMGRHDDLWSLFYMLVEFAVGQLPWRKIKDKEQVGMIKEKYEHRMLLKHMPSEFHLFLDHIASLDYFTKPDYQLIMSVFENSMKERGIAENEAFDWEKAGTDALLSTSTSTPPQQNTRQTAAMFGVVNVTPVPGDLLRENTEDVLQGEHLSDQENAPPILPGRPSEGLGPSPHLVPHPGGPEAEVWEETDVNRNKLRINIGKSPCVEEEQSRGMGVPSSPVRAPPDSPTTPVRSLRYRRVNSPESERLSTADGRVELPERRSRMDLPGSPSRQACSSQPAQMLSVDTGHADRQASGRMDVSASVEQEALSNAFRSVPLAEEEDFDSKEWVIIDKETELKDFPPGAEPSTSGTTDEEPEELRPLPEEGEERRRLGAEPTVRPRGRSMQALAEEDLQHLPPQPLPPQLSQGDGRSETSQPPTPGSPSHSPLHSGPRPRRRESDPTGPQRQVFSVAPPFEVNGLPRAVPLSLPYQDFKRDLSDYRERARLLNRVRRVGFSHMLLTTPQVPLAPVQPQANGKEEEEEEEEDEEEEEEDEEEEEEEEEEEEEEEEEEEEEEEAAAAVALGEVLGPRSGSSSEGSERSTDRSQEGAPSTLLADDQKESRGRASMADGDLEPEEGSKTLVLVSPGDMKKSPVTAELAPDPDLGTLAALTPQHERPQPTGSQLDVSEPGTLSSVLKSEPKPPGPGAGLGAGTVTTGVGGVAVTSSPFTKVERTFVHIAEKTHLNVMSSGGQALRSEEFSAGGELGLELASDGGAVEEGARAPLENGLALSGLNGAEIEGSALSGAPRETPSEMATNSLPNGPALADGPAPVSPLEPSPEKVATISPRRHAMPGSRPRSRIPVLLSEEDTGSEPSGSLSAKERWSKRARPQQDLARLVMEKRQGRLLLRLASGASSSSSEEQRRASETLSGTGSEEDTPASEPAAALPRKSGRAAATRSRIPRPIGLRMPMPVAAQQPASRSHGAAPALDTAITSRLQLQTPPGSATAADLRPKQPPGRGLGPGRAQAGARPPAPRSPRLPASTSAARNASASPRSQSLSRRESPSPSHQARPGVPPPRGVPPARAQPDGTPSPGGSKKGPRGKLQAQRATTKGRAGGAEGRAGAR
UniProt Q6IQ55, 1-450: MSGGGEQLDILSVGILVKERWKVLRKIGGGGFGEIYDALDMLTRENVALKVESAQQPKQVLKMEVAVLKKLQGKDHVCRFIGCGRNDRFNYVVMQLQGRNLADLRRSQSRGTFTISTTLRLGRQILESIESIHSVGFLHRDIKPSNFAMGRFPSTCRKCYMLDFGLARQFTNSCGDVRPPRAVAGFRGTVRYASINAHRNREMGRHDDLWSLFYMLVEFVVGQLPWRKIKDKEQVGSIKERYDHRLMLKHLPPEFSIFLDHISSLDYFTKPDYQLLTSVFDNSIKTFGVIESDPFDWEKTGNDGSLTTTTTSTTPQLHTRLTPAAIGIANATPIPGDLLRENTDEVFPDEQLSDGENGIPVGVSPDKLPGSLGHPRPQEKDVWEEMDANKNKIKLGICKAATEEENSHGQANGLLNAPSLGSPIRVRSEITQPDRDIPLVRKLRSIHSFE

Tests used:
[1] = target: recombinant human enzyme TTBK1 (1-1321) (Homo sapiens (Human), UniProt Q5TCY1); test: Enzymatic inhibition of TTBK1 (33P-ATP radiometric kinase assay); type: biochemical; conditions: recombinant human TTBK1 (1-1321), 0.005 mM ATP, 30 minutes at room temperature
[2] = target: recombinant human enzyme TTBK2(1-450) (Homo sapiens (Human), UniProt Q6IQ55); test: Enzymatic inhibition of TTBK2 (33P-ATP radiometric kinase assay); type: biochemical; conditions: recombinant human TTBK2(1-450), 0.005 mM ATP, 30 minutes at room temperature

Row | SMILES | IC50 [1] | IC50 [2]
1 | O=C(c1ccc(F)cc1)c1ccc(Nc2ncnc3[nH]ccc23)cc1 [Compound 26, (4-((7H-pyrrolo[2,3-d]pyrimidin-4-yl)amino)phenyl](4-fluorophenyl)methanone] | 1500 ± 300 nM | 5400 ± 700 nM
2 | Clc1ccccc1Oc1ccc(Nc2ncnc3[nH]ccc23)cc1 [Compound 14, N-[4-(2-chlorophenoxy)phenyl]-7H-pyrrolo[2,3-d]pyrimidin-4-amine] | 530 ± 20 nM | 490 ± 50 nM
3 | COc1cccc(Oc2ccc(Nc3ncnc4[nH]ccc34)cc2)c1 [Compound 17, N-[4-(3-methoxyphenoxy)phenyl]-7H-pyrrolo[2,3-d]pyrimidin-4-amine] | 840 ± 130 nM | 6790 ± 270 nM
4 | c1ccc(Oc2ccc(Nc3ncnc4[nH]ccc34)cc2)cc1 [Compound 1, N-(4-phenoxyphenyl)-7H-pyrrolo[2,3-d]pyrimidin-4-amine] | 390 ± 20 nM | 850 ± 310 nM
5 | FC(F)(F)c1ccc(Oc2ccc(Nc3ncnc4[nH]ccc34)cc2)cc1 [Compound 6, N-[4-(4-trifluoromethylphenoxy)phenyl]-7H-pyrrolo[2,3-d]pyrimidin-4-amine] | 5030 ± 2900 nM | –
6 | N#Cc1ccc(Oc2ccc(Nc3ncnc4[nH]ccc34)cc2)cc1 [Compound 4, N-[4-(4-cyanophenoxy)phenyl]-7H-pyrrolo[2,3-d]pyrimidin-4-amine] | 440 ± 310 nM | 2140 ± 1200 nM
7 | Cc1cccc(Oc2ccc(Nc3ncnc4[nH]ccc34)cc2)c1 [Compound 11, N-[4-(3-methylphenoxy)phenyl]-7H-pyrrolo[2,3-d]pyrimidin-4-amine] | 2200 ± 500 nM | 6400 ± 500 nM
8 | Brc1ccc(Oc2ccc(Nc3ncnc4[nH]ccc34)cc2)cc1 [Compound 7, N-[4-(4-bromophenoxy)phenyl]-7H-pyrrolo[2,3-d]pyrimidin-4-amine] | 750 ± 30 nM | 1210 ± 60 nM
9 | COc1ccc(Oc2ccc(Nc3ncnc4[nH]ccc34)cc2)cc1 [Compound 5, N-[4-(4-methoxyphenoxy)phenyl]-7H-pyrrolo[2,3-d]pyrimidin-4-amine] | 540 ± 530 nM | 970 ± 500 nM
10 | Cc1ccc(Oc2ccc(Nc3ncnc4[nH]ccc34)cc2)cc1 [Compound 10, N-[4-(4-methylphenoxy)phenyl]-7H-pyrrolo[2,3-d]pyrimidin-4-amine] | 1020 ± 330 nM | 8790 ± 2000 nM
11 | FC(F)(F)c1cccc(Oc2ccc(Nc3ncnc4[nH]ccc34)cc2)c1 [Compound 13, N-[4-(3-trifluoromethylphenoxy)phenyl]-7H-pyrrolo[2,3-d]pyrimidin-4-amine] | 5610 ± 2300 nM | –
12 | Clc1cccc(Oc2ccc(Nc3ncnc4[nH]ccc34)cc2)c1 [Compound 12, N-[4-(3-chlorophenoxy)phenyl]-7H-pyrrolo[2,3-d]pyrimidin-4-amine] | 1550 ± 1840 nM | –
13 | c1ccc(COc2ccc(Nc3ncnc4[nH]ccc34)cc2)cc1 [Compound 24, N-[4-(benzyloxy)phenyl]-7H-pyrrolo[2,3-d]pyrimidin-4-amine] | 750 ± 40 nM | 1210 ± 150 nM
14 | O=C(c1ccccc1)c1ccc(Nc2ncnc3[nH]ccc23)cc1 [Compound 25, (4-((7H-pyrrolo[2,3-d]pyrimidin-4-yl)amino)phenyl](phenyl)methanone] | 1710 ± 870 nM | 11900 ± 4170 nM
15 | O=[N+]([O-])c1ccc(Oc2ccc(Nc3ncnc4[nH]ccc34)cc2)cc1 [Compound 8, N-[4-(4-nitrophenoxy)phenyl]-7H-pyrrolo[2,3-d]pyrimidin-4-amine] | 420 ± 110 nM | 1240 ± 300 nM
16 | Nc1ccc(Oc2ccc(Nc3ncnc4[nH]ccc34)cc2)cc1 [Compound 9, N-[4-(4-aminophenoxy)phenyl]-7H-pyrrolo[2,3-d]pyrimidin-4-amine] | 520 ± 80 nM | 4900 ± 1210 nM
17 | COc1ccccc1Oc1ccc(Nc2ncnc3[nH]ccc23)cc1 [Compound 15, N-[4-(2-methoxyphenoxy)phenyl]-7H-pyrrolo[2,3-d]pyrimidin-4-amine] | 3560 ± 1630 nM | 9540 ± 90 nM
18 | Nc1ccc(Sc2ccc(Nc3ncnc4[nH]ccc34)cc2)cc1 [Compound 23, N-[4-((4-aminophenyl)thio)phenyl]-7H-pyrrolo[2,3-d]pyrimidin-4-amine] | 650 ± 50 nM | 4940 ± 280 nM
19 | Nc1nc(Nc2ccc(Oc3ccc(Cl)cc3)cc2)c2cc[nH]c2n1 [Compound 20, N4-(4-(4-chlorophenoxy)phenyl]-7H-pyrrolo[2,3-d]pyrimidine-2,4-diamine] | 450 ± 40 nM | 2700 ± 290 nM
20 | O=[N+]([O-])c1ccc(Sc2ccc(Nc3ncnc4[nH]ccc34)cc2)cc1 [Compound 22, N-[4-((4-nitrophenyl)thio)phenyl]-7H-pyrrolo[2,3-d]pyrimidin-4-amine] | 2720 ± 1780 nM | 22700 ± 2840 nM
